Holding throughout (assay): Isothermal titration calorimetry (ITC) of ligand binding at the FMNAT site
The target of one assay is T1, L98W CaFADS (Corynebacterium ammoniagenes, UniProt Q59263, L98W).
T1 construct: made in house; host or cells: E. coli BL21(DE3)

Another assay concerns the target T2, P58W CaFADS (Corynebacterium ammoniagenes, UniProt Q59263, P58W).
T2 construct: made in house; host or cells: E. coli BL21(DE3)

A further assay addresses T3, WT CaFADS (Corynebacterium ammoniagenes, UniProt Q59263).
T3 construct: made in house; host or cells: Escherichia coli
Conditions: 20 mM PIPES, pH 7.0, no MgCl2.

The target in a further assay is T4, L98K CaFADS (Corynebacterium ammoniagenes, UniProt Q59263, L98K).
T4 construct: made in house; host or cells: E. coli BL21(DE3)

Another assay addresses T5, P56W CaFADS (Corynebacterium ammoniagenes, UniProt Q59263, P56W).
T5 construct: made in house; host or cells: E. coli BL21(DE3)

The next assay deals with T6, P56A/P58A CaFADS (Corynebacterium ammoniagenes, UniProt Q59263, P56A/P58A).
T6 construct: made in house; host or cells: E. coli BL21(DE3)

On to `Nc1ncnc2c1ncn2[C@@H]1O[C@H](COP(=O)(O)OP(=O)(O)OP(=O)(O)O)[C@@H](O)[C@H]1O` [ATP, Adenosine 5′-triphosphate], for which the Kd (usually the equilibrium constant for the complex coming apart) on L98W CaFADS worked out at 47 ± 7 µM; at P58W CaFADS, 16 ± 1 µM; at WT CaFADS (25 °C), 48 ± 7 µM; on L98K CaFADS, 82 ± 21 µM; on P56W CaFADS, 44 ± 5 µM; at P56A/P58A CaFADS, 21 ± 3 µM. The ΔG on L98W CaFADS (L98W CaFADS, ITC, 20 mM PIPES, pH 7.0, no MgCl2) is listed as -5.9 ± 0.1 kcal/mol; at WT CaFADS it was -5.9 ± 0.1 kcal/mol; at P56W CaFADS (P56W CaFADS, ITC, 20 mM PIPES, pH 7.0, no MgCl2) it was -5.9 ± 0.1 kcal/mol.

The record behind these values is publication PMC6829536 (International Journal of Molecular Sciences, 2019).
